In publication PMC9919591, “New Triazine Derivatives as Serotonin 5-HT6 Receptor Ligands” (Molecules, 2023):
pKi: −log10 of the molar value.

Amino acid sequences for entries named in this document (tags omitted).
UniProt P34969, whole entry: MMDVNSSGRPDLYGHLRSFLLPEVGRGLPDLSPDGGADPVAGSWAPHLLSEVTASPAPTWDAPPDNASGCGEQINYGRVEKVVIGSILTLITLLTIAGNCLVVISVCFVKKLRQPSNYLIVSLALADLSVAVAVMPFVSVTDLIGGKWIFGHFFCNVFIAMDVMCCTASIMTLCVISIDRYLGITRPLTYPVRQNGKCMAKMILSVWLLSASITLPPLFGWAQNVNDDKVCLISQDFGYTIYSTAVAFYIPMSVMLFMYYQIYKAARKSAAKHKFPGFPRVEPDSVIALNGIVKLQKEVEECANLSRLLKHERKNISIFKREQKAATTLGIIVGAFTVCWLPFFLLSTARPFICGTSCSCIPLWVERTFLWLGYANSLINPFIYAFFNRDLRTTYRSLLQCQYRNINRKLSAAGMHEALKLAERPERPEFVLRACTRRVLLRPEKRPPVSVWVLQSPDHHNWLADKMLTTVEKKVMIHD
UniProt P50406, whole entry: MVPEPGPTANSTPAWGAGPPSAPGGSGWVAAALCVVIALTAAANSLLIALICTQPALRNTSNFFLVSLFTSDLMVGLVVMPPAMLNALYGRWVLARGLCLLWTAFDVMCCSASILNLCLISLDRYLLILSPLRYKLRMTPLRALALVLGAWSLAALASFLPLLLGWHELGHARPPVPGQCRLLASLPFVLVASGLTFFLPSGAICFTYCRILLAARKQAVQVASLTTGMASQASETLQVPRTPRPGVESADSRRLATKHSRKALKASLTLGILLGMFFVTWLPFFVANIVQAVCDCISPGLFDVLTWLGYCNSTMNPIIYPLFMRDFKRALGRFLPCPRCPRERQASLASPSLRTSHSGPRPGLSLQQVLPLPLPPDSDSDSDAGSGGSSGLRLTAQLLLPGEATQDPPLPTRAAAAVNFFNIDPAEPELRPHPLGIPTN

What was measured:
human 5-HT7R = human 5-HT7R (Homo sapiens, UniProt P34969); test: Radioligand binding assay, 5-HT7R ([3H]-5-CT); conditions: read-out: Ki 5-HT7R, HEK293 cells stably expressing human 5-HT7R
Method: Affinity for serotonin 5-HT2A, 5-HT7 and dopamine D2 receptors (D2R) as protein off-targets was evaluated in the radioligand binding assays. In CHO-K1 cells, it was stably expressed human 5-HT2AR, whereas human 5-HT7R and D2R were stably expressed in HEK293 cells. […] A particularly weak affinity towards this receptor was shown through compounds of series 1 (compounds 1–7) and series 2 (compounds 8–13). […]. Radioligand binding assays were used to determine the affinity of the synthesized compounds for human serotonin 5-HT6R, 5-HT2AR, 5-HT7R and dopamine D2R, which were stably expressed in HEK293 cells or CHOk1 cells (5-HT2AR). This was done as described previously.

human 5-HT6R = human 5-HT6R (Homo sapiens, UniProt P50406); test: Radioligand binding assay, 5-HT6R ([3H]-LSD)

CN1CCN(c2nc(N)nc(COc3ccccc3C(C)(C)C)n2)CC1 [Compound 3, 4-((2-(tert-Butyl)phenoxy)metyl)-6-(4-methylpiperazin-1-yl)-1,3,5-triazin-2-amine]
pKi (human 5-HT7R): 4.81
decrease in affinity for 5-HT6R compared to the free base 3 (human 5-HT6R; ratio of Ki values vs 3 (Ki = 13 nM)): 3 fold
pKi (human 5-HT6R; read-out: Ki 5-HT6R, [3H]-LSD, HEK293 cells stably expressing human 5-HT6R, average of at least two independent experiments): 7.46
